Laboratory results published in patent US8575156B2, “Cyclic inhibitors of 11β-hydroxysteroid dehydrogenase 1” (Vitae Pharmaceuticals, Inc., priority 2007, dated 2013).

Chains of the proteins cited; added tags and fusions are not shown.
UniProt P28845, whole entry: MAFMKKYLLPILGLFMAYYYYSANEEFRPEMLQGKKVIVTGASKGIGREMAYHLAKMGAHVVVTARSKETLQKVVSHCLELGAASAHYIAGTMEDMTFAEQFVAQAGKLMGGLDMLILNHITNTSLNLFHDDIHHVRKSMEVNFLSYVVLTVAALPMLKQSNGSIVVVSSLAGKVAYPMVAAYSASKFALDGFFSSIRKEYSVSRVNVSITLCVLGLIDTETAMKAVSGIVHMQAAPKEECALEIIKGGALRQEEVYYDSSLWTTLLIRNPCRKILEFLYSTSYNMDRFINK

Target: 11β-HSD1 (Homo sapiens, UniProt P28845)
Details: for Average % inhibition at 100 nM: Biological Test Example 1, 100 nM compound, 0.1 µM

Structure (SMILES) | IC50 | Average % inhibition at 100 nM
COc1ccc([C@H](C)N2CCC(CCO)(c3ccccc3)OC2=O)cc1 (single isomer, unassigned) [EXAMPLE 191 Isomer 2] | < 100 nM | 69.0%
COc1ccc([C@H](C)N2CCC(CCO)(c3ccccc3)OC2=O)cc1 (single isomer, unassigned) [EXAMPLE 191 Isomer 1] | < 100 nM | 98.9%
